Values of other authors in patent publication US10308662B2, “Thienopyranones as kinase and epigenetic inhibitors” (SignalRx Pharmaceuticals, Inc., priority 2014, dated 2019).

Target: BRD4-1 (Homo sapiens (Human), UniProt O60885)
Conditions: cited from earlier work

Question: With `CC[C@@H]1C(=O)N(C)c2cnc(Nc3ccc(C(=O)N[C@H]4CC[C@H](N5CCN(CC6CC6)CC5)CC4)cc3OC)nc2N1C(C)C` [BI6727] as the compound, how does the BRD4-1 inhibition read?
Answer: some degree of BRD4-1 inhibitory activity
